In PubChem BioAssay AID1716 (Vanderbilt High Throughput Screening Facility, 2009) one finds thallium flux rate (normalised fluorescence) data, which are given here for one molecule.

The entries are a selection whose mix differs from that of the whole data set. Results filed as inconclusive are left out. Active and inactive are the calls of the source.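 How the source made its calls: active means thallium flux rate significantly above the same plate's solvent-only control wells, beyond their mean plus 3 SD; inconclusive means the two replicate wells gave conflicting results; inactive means the rest.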

A short description of this test: compound effects on native HEK Tl+ uptake – HEK cells, counterscreen 1, counter-screen for KCC2 modulator project, confirmation (AID 1716). To be noted: HEK293 parental cells, thallium flux FluoZin2, ouabain; at 10 µM; baseline-ratio fluorescence slope, 10–20 s after thallium.
With `CP(=O)(Nc1ccccc1)Oc1ccc(F)cc1` (stereo unspecified), the thallium flux rate (normalised fluorescence) was inactive: 0.00786.
